From BindingDB's records for doi:10.1016/j.bmcl.2011.05.078 (Indiana University, 2011)

The chains behind the UniProt entries cited, without tags or fusion partners.
UniProt Q06124, whole entry: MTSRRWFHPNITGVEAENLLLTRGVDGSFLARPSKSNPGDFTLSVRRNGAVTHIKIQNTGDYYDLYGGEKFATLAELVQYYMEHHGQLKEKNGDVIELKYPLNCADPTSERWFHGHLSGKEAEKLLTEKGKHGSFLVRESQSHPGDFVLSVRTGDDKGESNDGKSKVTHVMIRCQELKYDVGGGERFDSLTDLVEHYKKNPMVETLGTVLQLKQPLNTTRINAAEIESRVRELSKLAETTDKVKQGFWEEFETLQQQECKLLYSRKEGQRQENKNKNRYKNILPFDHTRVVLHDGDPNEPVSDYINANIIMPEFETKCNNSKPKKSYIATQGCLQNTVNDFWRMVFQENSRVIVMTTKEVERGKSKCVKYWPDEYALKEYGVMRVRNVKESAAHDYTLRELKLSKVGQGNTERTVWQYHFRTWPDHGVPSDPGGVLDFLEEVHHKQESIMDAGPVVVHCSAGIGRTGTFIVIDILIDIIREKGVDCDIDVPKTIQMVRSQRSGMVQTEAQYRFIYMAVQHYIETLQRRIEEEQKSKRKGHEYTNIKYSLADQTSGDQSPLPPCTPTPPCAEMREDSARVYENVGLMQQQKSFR

Key:
[1] = target: T1, Tyrosine-protein phosphatase non-receptor type 11 (Homo sapiens, UniProt Q06124); experiment: Competitive inhibition at SHP2 catalytic domain assessed as inhibition of pNPP to p-nitrophenol conversion by spectrophotometry
[2] = target: T1, Tyrosine-protein phosphatase non-receptor type 11; experiment: Reversible inhibition at SHP2 catalytic domain assessed as inhibition of pNPP to p-nitrophenol conversion by spectrophotometry

Q: Cc1cc(S(=O)(=O)O)c(S(=O)(=O)O)cc1-n1[nH]c(C(=O)O)cc1=O was tested. Which Ki [1] did it give?
A: Its Ki is 4.6 µM.

Q: What about the Ki [2] of the same compound?
A: The Ki was 4.6 µM.
